According to patent US20160122305A1, “Topical Compositions and Methods of Use Thereof” (Avon Products, Inc., priority 2014, published 2016):

Molecular target: T1, α1A adrenergic receptor (Homo sapiens, UniProt P35348)
T1 sequence (P35348 1-466): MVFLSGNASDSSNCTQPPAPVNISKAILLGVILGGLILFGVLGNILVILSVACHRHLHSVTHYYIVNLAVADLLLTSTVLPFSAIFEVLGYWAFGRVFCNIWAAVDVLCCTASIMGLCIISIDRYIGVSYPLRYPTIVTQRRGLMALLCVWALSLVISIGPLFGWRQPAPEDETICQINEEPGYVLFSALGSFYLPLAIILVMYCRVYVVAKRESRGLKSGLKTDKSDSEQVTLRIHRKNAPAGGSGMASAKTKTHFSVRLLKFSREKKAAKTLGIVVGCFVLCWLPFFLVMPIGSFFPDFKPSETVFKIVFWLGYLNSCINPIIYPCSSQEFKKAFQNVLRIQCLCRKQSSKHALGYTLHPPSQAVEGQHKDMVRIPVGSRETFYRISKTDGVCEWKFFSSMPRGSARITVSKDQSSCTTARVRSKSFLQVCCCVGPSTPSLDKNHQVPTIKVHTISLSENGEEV
Test: SelectScreen cell-based GPCR profiling, α1A agonist assay
Conditions: classification in words from Table 1 EC50 values; insignificant β2 activity = EC50 greater than about 500 nM
Procedure: 32 μL of cell suspension (10,000 cells) were added to each well of a 384-well TC-Treated assay plate. Cells in Assay Media were incubated for 16-24 hours in the plate at 37° C./5% CO2 in a humidified incubator. […] 4 μL of Assay Media was added to all wells to bring the final assay volume to 40 μL. The plate was incubated for 5 hours at 37° C./5% CO2 in a humidified incubator. 8 μL of 1 μM Substrate+Loading Solution was added to each well and the plate was incubated for 2 hours at room temperature. The plate was read on a fluorescence plate reader.

For CC(Oc1ccccc1C1CCCC1)C1=NCCN1 (stereo not shown) [Compound III], the “selectivity of agonism (α1A and/or α2A EC50 less than 1,000 nM and insignificant activity at β2)” value was “selective α1A and α2A receptor agonist”.
